DT40 TDP1 CPT – growth inhibition of DT40 Tdp1-/-;hTDP1 cells with camptothecin (screen for TDP1 inhibitors); chicken DT40 Tdp1-/-;hTDP1 cells + 20 nM CPT, ATP luminescence, 48 h; Potency, µM (titrated, usually from 46.2 µM), usual class: inhibitors; 420,000 compounds, 12% hits; AID 686979; also: nearly all actives have a fitted effect of over 55% in size
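Cell growth measured by CellTiter-Glo luminescence after a minimum 48 h, 37 C compound exposure with 20 nM CPT in Tdp1-knockout DT40 cells stably expressing hTDP1, seeded 400/well; qHTS titration format.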
DT40 TDP1 no CPT – qHTS for Inhibitors of human tyrosyl-DNA phosphodiesterase 1 (TDP1): qHTS in cells in absence of CPT; AID 686978, 2013; Potency, µM (top dose mostly 46.2 µM), hits mostly inhibitors; DT40 Tdp1-/- hTDP1 cells, no CPT, ATP luminescence, 48 h; 420,000 compounds, 15% hits; also: nearly all actives have a fitted effect of over 55% in size
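Chicken DT40 Tdp1-/- cells complemented with human TDP1, screened without camptothecin (DMSO vehicle only), 400 cells/well. Compounds pin-transferred, cells incubated at 37 °C for at least 48 hr. Growth read as ATP-dependent luminescence (CellTiter-Glo, 30 min at RT).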
TDP1 inh – inhibitors of human tyrosyl-DNA phosphodiesterase TDP1; Potency, µM (top dose mostly 130 µM), hits mostly inhibitors; recombinant TDP1, AlphaScreen DNA substrate cleavage; 350,000 compounds, 0.28% hits; also: nearly all actives have a fitted effect of over 40% in size
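Enzyme-compound mixtures sat 15 min at room temperature, followed by a 5 min reaction with 15 nM final substrate and 10 min with AlphaScreen beads. Recombinant human Tdp1 was used at 1 nM final.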
miR-21 FLuc – miR-21 reporter, rising signal; Potency, µM (titrated, usually from 38.3 µM); AID 2288; 340,000 tested, under 10 active; HeLa miR-21 FLuc reporter, luciferase, 48 h; active = well fitted rising curve with a large enough effect; inconclusive = small, poorly fitted or top-dose-only effect; inactive = no such curve, though single readings can be large or run the other way;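 note: miR-21 action dims this reporter so a rising signal means less miR-21 action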
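Luminescence from a firefly luciferase reporter carrying a miR-21 binding site downstream, stably expressed under a CMV promoter in HeLa cells that make miR-21 endogenously, reports miRNA modulation after 48 h compound exposure up to approximately 40uM final.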
uPA generation – inhibitors of cell surface uPA generation | Potency, µM (series often up to 38.3 µM), most hits filed as inhibitors | AID 540303 | cell surface uPA generation assay, qHTS | 330,000 compounds, 0.31% hits; active = well fitted inhibition curve with a large enough effect; inconclusive = small, poorly fitted or top-dose-only effect; inactive = no such curve, though single readings can be large or run the other way; tested in mouse RAW 264.7 cells; also: nearly all actives have a fitted effect of over 55% in size
A number is an active result; 0 = inactive; ? = inconclusive; - = no result given; ! = repeats disagree. Sampled rows, rich in hits. Any-hit rate of the full collection: about 16%. Unless noted, calls follow the shape of the dose curve; as a rule, active = well fitted curve in the direction sought with a large enough effect; inconclusive = small, poorly fitted or top-dose-only effect, or another doubt; inactive = no such curve, though single readings can be large; an effect the other way counts as inactive or inconclusive.

SMILES	DT40 TDP1 CPT	DT40 TDP1 no CPT	TDP1 inh	miR-21 FLuc	uPA generation
Cc1sc(NC(=O)CN(C(=O)c2ccccc2F)C2CCCC2)c(C(N)=O)c1C	?	16.4µM	0	0	0
Cc1ccc(S(=O)(=O)N(C)Cc2ccc(C(=O)N/N=C/c3ccc(OC(F)F)cc3OC(F)F)cc2)cc1	?	23.1µM	0	?	0
O=C(N/N=C/c1ccc(OC(F)F)cc1OC(F)F)c1ccc(Br)cc1	0	0	0	0	0
C=Cc1ccc(Cn2c(C(=O)O)c(CNCc3cc(OC)ccc3OC)c3ccc(C)cc32)cc1	?	?	0	0	-
COc1ccc2c(CNCc3ccc(Cl)cc3)c(C(=O)O)n(Cc3ccccc3C)c2c1	2.31µM	1.16µM	0	0	-
COc1ccc(Cn2c(C(=O)O)c(CNCc3ccc(C)o3)c3ccc(OC)cc32)cc1	23.1µM	0	0	0	-
COc1ccc2c(CNCc3ccc(C)o3)c(C(=O)O)n(Cc3ccccc3C)c2c1	7.31µM	3.26µM	0	0	-
Cc1ccc2c(CNCc3ccc(C)o3)c(C(=O)O)n(Cc3ccccc3C)c2c1	?	?	0	0	-
CC1=C(/C=C/C(=C/C=C/C(C)=C/C(=O)O)c2ccc(C)cc2)C(C)(C)CCC1	-	-	0	-	-
CC1=C(/C=C/C(C)=C/C=C/C(C)=C\C(=O)O)C(C)(C)CCC1	?	23.1µM!	0	-	0
CC1=C(\C=C/C(C)=C/C=C\C(C)=C\C(=O)O)C(C)(C)CCC1	14.6µM!	11.6µM!	0	-	-
CC(C)C[C@H]1CN=C(N(C)C)N1CCCCc1ccccc1	5.17µM	2.59µM	-	-	?
CCC(CC)CN1C(N(C)C)=NC[C@@H]1CC(C)C	16.4µM	18.4µM	0	-	?
CCN1C(Nc2ccccc2)=NC[C@@H]1C	0	0	-	0	0
C[C@H]1CN=C(N(C)C)N1CCCCc1ccccc1	?	14.6µM	0	-	0
CC(C)C[C@H]1CN=C(N(C)C)N1CC1CCCC1	?	?	0	-	?
CC(=O)Nc1ccc(S(=O)(=O)NC2CC(=O)N(c3ccc(C)cc3)C2)cc1 (stereo not given)	0	0	-	-	0
CCc1ccc(NS(=O)(=O)c2ccc(-c3cc(C)no3)cc2)cc1	13µM	13µM	0	0	-
Cc1cc(C)cc(NS(=O)(=O)c2ccc(-c3cc(C)no3)cc2)c1	1.3µM	1.16µM	0	?	-
Cc1cc(-c2ccc(C)c(S(=O)(=O)Nc3ccc(C)c(N(C)C)c3)c2)on1	?	?	0	0	-
Cc1ccc(NS(=O)(=O)c2cc(-c3cc(C)no3)ccc2C)c(Cl)c1	?	?	0	0	-
Cc1ccc(NS(=O)(=O)c2ccc(-c3cc(C)no3)cc2)c(C)c1	4.61µM	5.8µM	0	0	-
CCc1ccc(S(=O)(=O)Nc2ccncc2)cc1	0	0	-	0	0
Cc1cc(-c2ccc(S(=O)(=O)Nc3ccc(Cl)cc3)cc2)on1	16.4µM	18.4µM	0	0	-
CCOC(=O)Cn1c(=O)oc2cc(S(=O)(=O)N3CCN(c4ccc(C(C)=O)cc4)CC3)ccc21	0	?	0	0	-
SMILES	DT40 TDP1 CPT	DT40 TDP1 no CPT	TDP1 inh	miR-21 FLuc	uPA generation
Cc1csc(=O)n1CCC(=O)OCC(=O)c1c(N)n(CC(C)C)c(=O)n(C)c1=O	18.4µM	14.6µM	0	-	0
CC(C)Cn1c(N)c(C(=O)COC(=O)CC23CC4CC(CC(C4)C2)C3)c(=O)n(C)c1=O	7.31µM	7.31µM	0	?	0
Cc1csc(=O)n1CCC(=O)OCC(=O)c1c(N)n(C)c(=O)n(C)c1=O	0	0	0	-	0
CC(C)Cn1c(N)c(C(=O)COC(=O)CCc2nc3ccccc3c(=O)[nH]2)c(=O)n(C)c1=O	?	0	0	-	0
CC(C)Cn1c(N)c(C(=O)COC(=O)CCc2nc3ccccc3s2)c(=O)n(C)c1=O	?	14.6µM	0	0	0
CSc1ccc(Cl)c(C(=O)NNC(=O)c2csc(N3CCOCC3)n2)c1	0	0	0	-	0
Cc1ccc(CNC(=O)CN2C(=O)CSc3ccc(S(=O)(=O)N4CCCC4)cc32)cc1	0	?	0	0	-
CCN(Cc1ccncc1)C(=O)c1ccc(C)o1	0	0	0	0	0
CC(=O)OC1CCC2(C)C(CCC3C2CC(=NO)C2(C)C(C(C)OC(C)=O)CCC32)C1 (stereo not given)	14.6µM	18.4µM	-	-	0
CC(=O)OC1CC[C@@]2(C)C(CCC3C2CC(=O)[C@@]2(C)C3CC3CC(C)=CC(=O)C32)C1 (stereo not given in full)	18.4µM	14.6µM	-	0	0
CN(CC(=O)NCC(=O)Nc1ccc(F)c(F)c1F)C1CCS(=O)(=O)C1 (stereo not given)	0	0	0	-	0
COc1ccc(-c2nnc3ccc(SC(C)C)nn23)cc1OC	10µM	12.6µM	0	-	-
COc1ccc(-c2nnc3ccc(SC(C(C)=O)C(C)=O)nn23)cc1OC	18.4µM	?	0	0	0
C=CCNC(=O)CSc1nnc(-c2ccccn2)n1Cc1ccccc1	0	0	0	0	0
CCOC(=O)[C@H]1[C@H]2COc3ccc(Br)cc3[C@@H]2N2C(=O)c3ccc(Cl)cc3NC(=O)[C@@]12C	18.4µM	18.4µM	0	-	0
CCOC(=O)[C@H]1[C@H]2COc3ccc(C)cc3[C@@H]2N2C(=O)c3cc(Cl)ccc3NC(=O)[C@@]12C	?	?	0	-	0
CCOC(=O)[C@H]1[C@H]2COc3ccc(C)cc3[C@@H]2N2C(=O)c3ccc(C)cc3NC(=O)[C@@]12C	23.1µM	?	0	-	0
Cc1ccc(N=Cc2ccc(O)cc2O)cc1F	?	20.6µM	0	0	0
Oc1ccc(C=Nc2ccc(N3CCOCC3)cc2)c(O)c1	0	0	0	0	0
CCn1c(-c2ccccc2F)nc2cc(NC(C)=O)cc(C(=O)N(C)Cc3ccc4nccnc4c3)c21	?	0	-	-	-
COc1cc(OC)c(NC(=O)NC(C)c2c(-n3cccc3)sc(C)c2C)cc1Cl (stereo not given)	0	0	0	0	-
CCOCCCNC(=O)NC(CCC(C)C)c1c(-n2cccc2)sc2c1CCN(C)C2 (stereo not given)	16.4µM	16.4µM	0	0	-
Cc1ccc(NC(=O)NCc2c(-n3cccc3)sc3c2CCCC3)c(Cl)c1	?	23.1µM	0	0	-
CCN1CCc2c(sc(-n3cccc3)c2C(C)NC(=O)Nc2cc(Cl)c(OC)cc2OC)C1 (stereo not given)	18.4µM	18.4µM	0	0	-
COc1cc(NC(=O)NC(C)c2c(-n3cccc3)sc3c2CCN(C)C3)cc(OC)c1 (stereo not given)	23.1µM	23.1µM	0	0	-
Cc1c(Cl)cccc1NC(=O)NCc1c(-n2cccc2)sc2c1CCCC2	0	0	0	0	-
CCOC(=O)c1ccc(Oc2cn[nH]c2-c2ccc(OCC(=O)NN)cc2O)cc1	0	0	-	0	0
O=C(COC(=O)CNC(=O)c1ccc(Cl)cc1Cl)NC1CC1	0	0	0	-	0
